What was measured:
[1] = biological target: T1, BTK protein and Cy5-labeled IVT RNA (Homo sapiens, UniProt Q06187); experiment: In vitro ternary complex formation assay (target RNA-bifunctional molecule-BTK), gel supershift; format: binding; conditions: 10 pmol ASOi, 2 pmol BTK protein, 20 pmol Cy5-labeled IVT RNA, PBS, 90 minutes room temperature, PAGE
T1 construct: 2 pmol purified BTK protein
Protocol: A ternary complex is a complex containing three different molecules bound together. […] An inhibitor-conjugated antisense oligonucleotide (hereafter referred to as ASOi) (i.e., Rluc ASO conjugated to Ibrutinib-MPEA) was mixed with the protein target of the inhibitor (i.e., BTK) and the RNA target of the ASO (i.e., Rluc RNA), and allowed to react with the protein and hybridize with the RNA target to form a ternary complex including all 3 molecules. The same was also performed with MALAT1 targeting ASO with the sequence 5′CGUUAACUAGGCUUUA3′ (SEQ ID NO: 4) conjugated at the 5′ end with Ibrutinib (BTK inhibitor; BTKi) and the RNA target of the ASO (i.e., MALAT1 RNA) as shown in FIG. 2A. FIG. 2B depicts the gel analysis results detecting the formation of the ternary complex. Binding of the ASOi to the target protein caused the protein to migrate higher (shift up) on a polyacrylamide gel because of its increased molecular weight. […] Furthermore, labeling the target RNA with a fluorescent dye allowed direct visualization of the target RNA in the supershifted protein complex.
In one reaction (#1), 10 pmol of the MALAT1 targeting ASO (hereafter called N33-ASOi) conjugated at the 5′ end with Ibrutinib was mixed in PBS with 2 pmol purified BTK protein, 200 pmol yeast rRNA (as non-specific blocker) and 20 pmol Cy5-labeled IVT RNA of the following sequence: […]

Protein sequences, listed by entry. Tags and fused reporters are not part of them. Lines headed by an entry give the natural chain unless they say otherwise; changes in a name come on top.
UniProt Q06187: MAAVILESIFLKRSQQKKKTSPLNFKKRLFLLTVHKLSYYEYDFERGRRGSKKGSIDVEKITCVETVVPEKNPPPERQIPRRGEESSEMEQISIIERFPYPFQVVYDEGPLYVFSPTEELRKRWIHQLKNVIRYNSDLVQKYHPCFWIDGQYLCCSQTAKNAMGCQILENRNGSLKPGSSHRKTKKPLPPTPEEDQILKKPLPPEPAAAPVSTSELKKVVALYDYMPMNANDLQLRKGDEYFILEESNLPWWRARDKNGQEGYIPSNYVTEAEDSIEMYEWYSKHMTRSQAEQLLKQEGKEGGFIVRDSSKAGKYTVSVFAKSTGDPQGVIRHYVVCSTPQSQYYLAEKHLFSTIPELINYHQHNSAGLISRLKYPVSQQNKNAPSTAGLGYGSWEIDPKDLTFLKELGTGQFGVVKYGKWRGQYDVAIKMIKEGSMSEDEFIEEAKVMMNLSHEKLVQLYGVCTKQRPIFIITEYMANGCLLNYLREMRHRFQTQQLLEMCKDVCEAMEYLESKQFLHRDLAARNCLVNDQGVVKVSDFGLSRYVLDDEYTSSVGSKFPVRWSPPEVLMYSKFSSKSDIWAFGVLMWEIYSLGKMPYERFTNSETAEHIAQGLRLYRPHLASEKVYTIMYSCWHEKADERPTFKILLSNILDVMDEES

purified BTK protein = biological target: T2, purified BTK protein (Homo sapiens, UniProt Q06187); experiment: In vitro complex formation assay, gel shift of BTK protein band (binary complex); format: binding; conditions: 10 pmol ASOi, 2 pmol purified BTK protein, PBS, 90 minutes room temperature, PAGE Bis-Tris 4-12% gel
T2 construct: 2 pmol purified BTK protein
Protocol: In one reaction (#1), 10 pmol of the MALAT1 targeting ASO (hereafter called N33-ASOi) conjugated at the 5′ end with Ibrutinib was mixed in PBS with 2 pmol purified BTK protein, 200 pmol yeast rRNA (as non-specific blocker) and 20 pmol Cy5-labeled IVT RNA of the following sequence:
All reactions were incubated at room temperature for 90 minutes protected from light, then mixed with a loading buffer containing 0.5% SDS final and 10% glycerol final, and complexes separated by PAGE on a Bis-Tris 4-12% gel including an IRDye700 pre-stained protein molecular weight marker (LiCor). Immediately following electrophoresis, the gel was imaged using a LiCor Odyssey system with the 700 nm channel to identify the position of Cy5-IVT-RNA bands and MW marker. Next, proteins in the gel were stained using InstantBlue colloidal Coomassie stain (Expedeon) and re-imaged using transmitted light. The two images were lined up using size markers and lane positions to identify the relative positions of BTK protein bands and Cy5-IVT target RNA. (FIG. 3)

Row | Substance | supershift of the BTK protein band in the presence of Cy5-IVT RNA (ternary complex formation) [1] | increase in MW of the BTK protein band (binary complex formation) (purified BTK protein)
1 | SCR-ASOi: non-complementary RNA oligo 5′AGAGGUGGCGUGGUAG3′ (SEQ ID NO: 6) conjugated at the 5′ end with Ibrutinib (agagguggcgugguag; 5' Ibrutinib conjugate; non-complementary RNA oligo) | not | 
2 | N33-ASOi: MALAT1 targeting ASO 5′CGUUAACUAGGCUUUA3′ (SEQ ID NO: 4) conjugated at the 5′ end with Ibrutinib (cguuaacuaggcuuua; 5' Ibrutinib conjugate) | further supershift | binary complex formation
